The values that follow come from publication PMC11106956, “Population pharmacokinetics of primaquine and its metabolites in African males” (Malaria Journal, 2024).

For the data set the following is noted: single oral PQ 0.40-0.50 mg/kg; typical individual 62.5 kg; metabolites dosed as PQ molar dose 1:1.

In the case of `COc1cc(NC(C)CCCN)c2ncccc2c1` (stereo not shown) [Primaquine], the “VC/F, apparent volume of distribution of the central compartment, population estimate (%RSE)” value is given as 163 (10.3%) L.
